# Measured affinities in a library of Ab-91 heavy chain variants

Binding partner: SARS-CoV-2 spike HR2 peptide, sequence PDVDLGDISGINAS.

Each scFv is VL, a 15-residue (Gly4Ser)3 linker, VH, as in the parent Ab-91, and differs from it in the CDRs of the heavy chain only.
VL: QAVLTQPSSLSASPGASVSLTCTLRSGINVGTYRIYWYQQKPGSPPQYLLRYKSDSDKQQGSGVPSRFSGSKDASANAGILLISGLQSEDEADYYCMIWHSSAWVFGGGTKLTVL
VH: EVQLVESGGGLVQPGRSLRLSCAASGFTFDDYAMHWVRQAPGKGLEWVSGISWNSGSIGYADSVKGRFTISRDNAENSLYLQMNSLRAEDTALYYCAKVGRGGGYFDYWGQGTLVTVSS

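The parent was found by panning a naive human phage display library on the peptide. AAYL51 was designed without a model: most single CDR substitutions and a random sample of double and triple ones. In AlphaSeq, yeast of one mating type display the scFv and yeast of the other type display the target. Mating (16 h, 30 °C) was followed by selection of diploids and sequencing of their barcodes. The ratio of observed to expected reads was calibrated, replicate by replicate, on BCL2-family standards whose Kd was known from biolayer interferometry. The assay was run in three technical replicates.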

Changes read parent residue, position, new residue, counted from the first residue of the VH shown. Scale: log10 of Kd in nM, estimated from mating counts; low values are strong binders. Averages over replicates are reported, and they cover detected replicates only. A pair that was not seen in that replicate is written "nd"; this usually means weak binding, but a binder can also be missed. As a blank, each scFv also met three strains without target: over library AAYL51, 21% of these pairings were detected, typically at 4.54 and seldom below 3.26. Also given: how often the same scFv was detected with the empty control strains, with their mean in brackets.

| changes | log10 Kd, replicates | log10 Kd (nM), mean | control signals |
|---|---|---|---|
| Y32C/W53H | 2.64 / 2.39 / 2.17 | 2.40 | 2 of 9 (4.36) |
| S57V/A61D/G102N | 3.83 / nd / nd | 3.83 | 2 of 9 (4.03) |
| R101A/D107Y | nd / nd / nd | nd | 1 of 9 (4.37) |
| M34S/I51E/S63C | 5.31 / 5.60 / nd | 5.46 | 1 of 9 (4.61) |
| D30P/M34V/S55Y | nd / nd / nd | nd | 0 of 9 |
| G26D/G103K/Y105S | nd / 3.64 / nd | 3.64 | 3 of 9 (4.26) |
| W53I/D62R/K65R | 3.67 / nd / nd | 3.67 | 2 of 9 (3.56) |
| N54W/Y105L | nd / nd / nd | nd | 0 of 9 |
| D31Y/S55M/S57H | nd / 4.93 / nd | 4.93 | 0 of 9 |
| G56C/V99M | 4.83 / 4.09 / nd | 4.46 | 4 of 9 (5.47) |
| S55F/K65C/Y105M | nd / nd / nd | nd | 0 of 9 |
| D30V/W53L/F106W | 4.39 / nd / nd | 4.39 | 2 of 9 (4.27) |
| F29D/G50W/R101C | 5.63 / 5.77 / nd | 5.70 | 1 of 9 (3.59) |
| T28K | 1.14 / 1.85 / 0.54 | 1.18 | 3 of 9 (2.75) |
| D30N/G103L/G104V | nd / nd / nd | nd | 0 of 9 |
| G26C/G56K/V64F | nd / nd / nd | nd | 1 of 9 (3.03) |
| A33N/R101Q/G103Y | 4.38 / nd / nd | 4.38 | 0 of 9 |
| T28R/F29C/Y32N | nd / nd / 4.54 | 4.54 | 0 of 9 |
| Y32R/W53G/G102P | nd / nd / nd | nd | 0 of 9 |
| A33W/G56W/Y105H | 5.42 / 5.37 / 5.04 | 5.28 | 4 of 9 (5.04) |
| D30P/G102C/G103N | nd / nd / 4.99 | 4.99 | 1 of 9 (4.27) |
| V99K/G103N/D107Y | nd / nd / nd | nd | 2 of 9 (4.37) |
| G26V/M34C/F106N | nd / nd / nd | nd | 0 of 9 |
| D31L/H35G/F106P | nd / nd / nd | nd | 0 of 9 |
| F27W/G103V/G104P | nd / 5.62 / nd | 5.62 | 6 of 9 (4.92) |
| D31T/A33Q/S52C | nd / nd / nd | nd | 0 of 9 |
| G26K/D30H/S55D | nd / nd / nd | nd | 0 of 9 |
| G26S/D31N/A33C | nd / nd / nd | nd | 1 of 9 (3.67) |
| Y32E/V64C/G104C | nd / nd / nd | nd | 0 of 9 |
| M34W/S52L/V99I | 2.80 / nd / nd | 2.80 | 0 of 9 |
| G26C/N54L/G102S | nd / 3.47 / nd | 3.47 | 0 of 9 |
| H35F/D107N | 4.95 / nd / nd | 4.95 | 4 of 9 (4.95) |
| G26T/G56R/S63R | nd / nd / nd | nd | 0 of 9 |
| T28E/N54H/I58W | 3.51 / 3.70 / 4.04 | 3.75 | 0 of 9 |
| D30N/M34F/G56Q | 1.58 / 1.61 / 0.99 | 1.40 | 2 of 9 (3.59) |
| W53G/S57Q/G104F | nd / nd / nd | nd | 0 of 9 |
| A33M/I51H/S63N | nd / nd / 3.46 | 3.46 | 1 of 9 (4.14) |
| G26W/I58H/Y60W | nd / nd / nd | nd | 0 of 9 |
| D31L/W53C/Y60N | nd / nd / nd | nd | 0 of 9 |
| A61G/D62K/Y108G | 2.26 / 2.60 / 1.99 | 2.28 | 2 of 9 (5.19) |
| Y32M/S55R/G102C | 5.57 / nd / 4.42 | 4.99 | 2 of 9 (5.23) |
| A61W/R101E/G103K | nd / nd / nd | nd | 0 of 9 |
| G26N/V99G | nd / 6.30 / 4.35 | 5.33 | 4 of 9 (4.46) |
| F27D/H35D/S63H | 4.47 / 5.43 / 4.50 | 4.80 | 4 of 9 (5.50) |
| G56N/G100W/G102R | 4.44 / nd / 5.60 | 5.02 | 5 of 9 (4.67) |
| H35R/S57F/Y105R | nd / 5.31 / nd | 5.31 | 3 of 9 (4.55) |

The measurements come from Engelhart et al. 2022 (doi:10.1038/s41597-022-01779-4) through the FLAb antibody collection.